## Measured affinities in a library of Ab-14 light chain variants

Source: Engelhart et al. 2022 (doi:10.1038/s41597-022-01779-4), MIT Lincoln Laboratory and A-Alpha Bio; data file from the FLAb repository.

The target is the same throughout: PDVDLGDISGINAS, from the HR2 region of SARS-CoV-2 spike.

Each scFv is VH, a (GGGGS)3 linker, VL, as in the parent Ab-14, and differs from it in the CDRs of the light chain only.
VH: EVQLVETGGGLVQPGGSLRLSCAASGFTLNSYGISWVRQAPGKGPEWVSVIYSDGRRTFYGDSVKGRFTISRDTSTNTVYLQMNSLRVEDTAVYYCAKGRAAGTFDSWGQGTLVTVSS
VL: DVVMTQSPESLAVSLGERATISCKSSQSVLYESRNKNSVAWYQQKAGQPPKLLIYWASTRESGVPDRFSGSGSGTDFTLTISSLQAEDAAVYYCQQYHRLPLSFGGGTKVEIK

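The library (AAYL50) carries one to three amino acid substitutions per variant, with no insertions or deletions. Affinity was read by AlphaSeq, a pooled yeast mating assay with surface-displayed partners. Pairs that bind mate more often; barcode pairs of the diploids are counted by sequencing. Scores were corrected for input abundance and mapped to Kd with protein pairs of known affinity run in the same pool. The assay was run in three technical replicates.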

Positions count from residue 1 of the parent VL; S26D puts D in place of S.
Every variant below is changed at S26 of the VL (sequential numbering).
Numbers give log10(Kd / nM), so 0 is 1 nM and 3 is 1 µM. Smaller is tighter.
Averages over replicates are reported, and they cover detected replicates only.
An entry "nd" has no value in the source: the pair was not observed among the diploids in any replicate. This suggests poor binding but is not conclusive.
As a blank, each scFv also met three strains without target: over library AAYL50, 18% of these pairings were detected, typically at 4.19 and seldom below 2.99. For each scFv, signals with the empty controls are counted beside the result.
Parent in this assay: reference entry 0.65, copy in this library 1.68.

Variant S26D/N37S/S62L showed 1.11 (3 of 3 replicates; controls 0 of 9).
Variant S26H/S33A/K36E showed 1.02 (3 of 3 replicates; controls 2 of 9).
Variant K24E/S26F/V39Q showed 4.42 (2 of 3 replicates; controls 5 of 9).
Variant S26F/Y97G/P101N showed 1.99 (1 of 3 replicates; controls 0 of 9).
Variant S26D/P101C/L102S showed 5.89 (1 of 3 replicates; controls 2 of 9).
Variant K24Y/S26Y/P101R showed 3.80 (2 of 3 replicates; controls 0 of 9).
Variant S26E/H98T/P101W showed nd (0 of 3 replicates; controls 1 of 9).
Variant S26H/L30E/S62L showed 0.45 (3 of 3 replicates; controls 0 of 9).
Variant S26C/A57F/S103C showed nd (0 of 3 replicates; controls 0 of 9).
Variant S26C/S28T/Q95V showed 1.65 (3 of 3 replicates; controls 3 of 9).
Variant S26C/N35C/Q95W showed nd (0 of 3 replicates; controls 3 of 9).
Variant S26E/S33M showed 2.47 (3 of 3 replicates; controls 1 of 9).
Variant S26D/S103W showed 2.50 (3 of 3 replicates; controls 0 of 9).
Variant S26D/N37L/S62L showed 2.60 (3 of 3 replicates; controls 1 of 9).
Variant S26C/S33G/W56Y showed nd (0 of 3 replicates; controls 0 of 9).
Variant S26L/A57L/R99Y showed nd (0 of 3 replicates; controls 0 of 9).
Variant S26D/A40V/P101H showed 1.97 (3 of 3 replicates; controls 1 of 9).
Variant K24M/S26E/W56G showed 0.03 (3 of 3 replicates; controls 6 of 9).
Variant S26Y/S28D/L100A showed nd (0 of 3 replicates; controls 3 of 9).
Variant S26G/S28D/E32I showed 2.17 (1 of 3 replicates; controls 1 of 9).
Variant S26D/R60M/L100I showed 3.86 (3 of 3 replicates; controls 5 of 9).
Variant S26V/V29E/A40K showed 4.00 (2 of 3 replicates; controls 1 of 9).
Variant S26R/Q27K/R60T showed 3.54 (1 of 3 replicates; controls 2 of 9).
Variant S26M/K36P/V39D showed nd (0 of 3 replicates; controls 0 of 9).
Variant S26T/H98G/L100T showed nd (0 of 3 replicates; controls 0 of 9).
Variant S26Y/Y97C/R99L showed nd (0 of 3 replicates; controls 1 of 9).
Variant S26N/N37G/V39R showed 6.32 (1 of 3 replicates; controls 7 of 9).
Variant S26C/Q27L/R60I showed nd (0 of 3 replicates; controls 0 of 9).
Variant S26R/S58R/S62N showed 4.51 (2 of 3 replicates; controls 4 of 9).
Variant S26Q/S58Q/R60K showed 2.79 (3 of 3 replicates; controls 0 of 9).
Variant S26C/S62D showed 0.88 (3 of 3 replicates; controls 1 of 9).
Variant S26N/W56K/L102I showed 0.44 (3 of 3 replicates; controls 2 of 9).
Variant S26K/K36C/W56C showed 2.04 (3 of 3 replicates; controls 5 of 9).
Variant S26G/S62V/P101C showed 1.28 (3 of 3 replicates; controls 2 of 9).
Variant S26H/S62E showed 2.40 (3 of 3 replicates; controls 4 of 9).
Variant S26Q/K36W/Y97N showed nd (0 of 3 replicates; controls 0 of 9).
Variant S26Q/T59R showed 1.30 (3 of 3 replicates; controls 2 of 9).
Variant S26V/R34P/S62N showed 0.80 (3 of 3 replicates; controls 5 of 9).
Variant S26K/K36E/S62I showed 1.57 (3 of 3 replicates; controls 0 of 9).
Variant S26N/S28D/V39W showed 4.63 (3 of 3 replicates; controls 1 of 9).
Variant S26F/T59W/Q96P showed nd (0 of 3 replicates; controls 1 of 9).
Variant S26W/E61T/L102P showed nd (0 of 3 replicates; controls 0 of 9).
Variant S26M/S38Y/Q96S showed 3.91 (3 of 3 replicates; controls 5 of 9).
Variant S26D/R99M/P101M showed 3.41 (3 of 3 replicates; controls 5 of 9).
Variant S26D/W56A/S103W showed 0.04 (3 of 3 replicates; controls 3 of 9).

For reference, 3 entries of the list once more:

Variant S26D/R60M/L100I showed 3.86 (3 of 3 replicates; controls 5 of 9).
Variant S26Q/T59R showed 1.30 (3 of 3 replicates; controls 2 of 9).
Variant S26T/H98G/L100T showed nd (0 of 3 replicates; controls 0 of 9).